Where a name gives a salt, the structure may show the parent alone.
System: mesencephalic neurons (dopaminergic)
Test: Dopamine uptake in 6-OHDA treated embryonic mesencephalic cultures (Experiment 8)
Type: cell-based, Wistar rat
Conditions: 2 μM

## CN1Cc2c(N)cccc2C(c2ccccc2)C1 (stereo not shown) [nomifensine maleate, reference compound]
  [3H]dopamine uptake counts relative to control values: approximately 10%
